From article PMC5986797, “Laminin heparin-binding peptides bind to several growth factors and enhance diabetic wound healing” (Nature Communications, 2018)

Tested on: recombinant human laminin isoforms (–111, –211, –332, –411, –421, –511, and –521)
Assay: ELISA: binding of full-length laminin isoforms to absorbed GFs and CXCL chemokines
Conditions: 50 nM GF coated, 10 nM laminin; signals greater than 0.1 indicate binding; n = 4
Description: Ninety-six-well ELISA plates (med-binding, Greiner Bio-One) were coated with 50 nM GFs in 100 µL/well of phosphate-buffered saline (PBS) at 37 °C for more than 2 h. After blocking with 2% BSA solution containing PBS and 0.05% Tween 20 (PBS-T), 10 nM recombinant human laminin isoforms (–111, –211, –332, –411, –421, –511, and –521) (>95% purity tested by SDS-PAGE, BioLamina) in 100 µL/well PBS were added. Bound laminin was detected with 100 µL/well rabbit anti-human LAMC1 polyclonal antibody (Assay Biotech, Catalog No. C13072, 1:1000 dilution in PBS) or rabbit anti-human LAMA3 polyclonal antibody (Assay Biotech, Catalog No. C13066, 1:1000 dilution in PBS). After incubation with biotinylated anti-rabbit antibody for 60 min at room temperature (RT), HRP-conjugated streptavidin (Jackson ImmunoResearch) was added. After 60 min of incubation at RT, 50 μL of TMB substrate (Sigma-Aldrich) was added. The reactions were stopped by adding 25 μL of 2 N H2SO4. Subsequently, the absorbance at 450 nm was measured with a reference of 570 nm.

- binding to all tested laminin isoforms (ELISA, A450 nm): showed binding
Substance: BMP-2: bone morphogenetic protein, PeproTech
